Literature values, collected in US20110295006A1, “CYCLIC DIPEPTIDES AS FEED ADDITIVES” (EVONIK DEGUSSA GMBH, priority 2010, published 2011).

Details: Baker et al. 1982; cited from earlier work

Substance: poly-L-methionine
- solubility in water: absolute insolubility
